21 compounds from patent US20090099157A1, “TETRAHYDRO-PYRAZOLO-PYRIDINE THIOETHER MODULATORS OF CATHEPSIN S” (priority 2007, published 2009) can be followed below.

Protein sequences, listed by entry. Tags and fused reporters are not part of them. Residues count along the entry.
UniProt P25774, 115-331: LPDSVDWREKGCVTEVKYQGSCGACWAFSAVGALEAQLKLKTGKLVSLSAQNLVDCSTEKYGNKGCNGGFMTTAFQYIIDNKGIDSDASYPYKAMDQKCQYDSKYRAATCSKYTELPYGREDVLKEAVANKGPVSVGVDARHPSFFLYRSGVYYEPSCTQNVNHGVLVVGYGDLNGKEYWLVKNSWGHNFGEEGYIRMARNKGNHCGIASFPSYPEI

The target of the experiment is Recombinant human cathepsin S (CatS) (Homo sapiens, UniProt P25774). As to the kind of experiment: biochemical.

Consider `C[C@H](O)C(=O)NC1CCN(C[C@H](O)Cn2nc(-c3ccc(C(F)(F)F)c(SCCN4CCC5CCCCC5C4)c3)c3c2CCN(S(C)(=O)=O)C3)CC1` (stereo partly drawn) [Example 861, (2S)-2-Hydroxy-N-{1-[(2S)-2-hydroxy-3-{5-(methylsulfonyl)-3-[3-{[2-(octahydroisoquinolin-2(1H)-yl)ethyl]sulfanyl}-4-(trifluoromethyl)phenyl]-4,5,6,7-tetrahydro-1H-pyrazolo[4,3-c]pyridin-1-yl}propyl]piperidin-4-yl}propanamide], for which the IC50 (as a rule, the concentration at which inhibition is half-maximal) was found to be 35 nM.

In the case of `O=C1CCCN1C1CCN(CC(O)Cn2nc(-c3ccc(C(F)(F)F)c(SCCN4CCC(F)(F)C4)c3)c3c2CCNC3)CC1` (stereo not drawn) [Example 439, 1-[1-(3-{3-[3-{[2-(3,3-Difluoropyrrolidin-1-yl)ethyl]sulfanyl}-4-(trifluoromethyl)phenyl]-4,5,6,7-tetrahydro-1H-pyrazolo[4,3-c]pyridin-1-yl}-2-hydroxypropyl)piperidin-4-yl]pyrrolidin-2-one], the IC50 amounted to 580 nM.

With `CS(=O)(=O)N1CCc2c(c(-c3ccc(C(F)(F)F)c(SCCNCc4ccccc4)c3)nn2CCCN2CCC(N3CCCC3=O)CC2)C1` [Example 29, 1-[1-(3-{3-[3-(2-Benzylamino-ethylsulfanyl)-4-trifluoromethyl-phenyl]-5-methanesulfonyl-4,5,6,7-tetrahydro-pyrazolo[4,3-c]pyridin-1-yl}-propyl)-piperidin-4-yl]-pyrrolidin-2-one], the IC50 was 700 nM.

As to `CS(=O)(=O)N1CCc2c(c(-c3ccc(C(F)(F)F)c(SCCNCCCO)c3)nn2CCCN2CCC(N3CCCC3=O)CC2)C1` [Example 598, 1-[1-(3-{3-[3-({2-[(3-Hydroxypropyl)amino]ethyl}sulfanyl)-4-(trifluoromethyl)phenyl]-5-(methylsulfonyl)-4,5,6,7-tetrahydro-1H-pyrazolo[4,3-c]pyridin-1-yl}propyl)piperidin-4-yl]pyrrolidin-2-one], the IC50 is 530 nM.

Consider `CS(=O)(=O)N1CCc2c(c(-c3ccc(C(F)(F)F)c(SCCN4CCC(N5CCCC5)CC4)c3)nn2CC(O)CN2CCC(C(=O)N3CCCCC3)CC2)C1` (stereo not drawn) [Example 890, 1-{5-(Methylsulfonyl)-3-[3-{[2-(4-pyrrolidin-1-ylpiperidin-1-yl)ethyl]sulfanyl}-4-(trifluoromethyl)phenyl]-4,5,6,7-tetrahydro-1H-pyrazolo[4,3-c]pyridin-1-yl}-3-[4-(piperidin-1-ylcarbonyl)piperidin-1-yl]propan-2-ol], for which the IC50 came out at 650 nM.

Consider `CC(=O)N1CCc2c(c(-c3ccc(C(F)(F)F)c(SCCN4CCCCC4)c3)nn2CC(O)CN2CCC(N3CCCC3=O)CC2)C1` (stereo not drawn) [Example 246, 1-{1-[3-(5-Acetyl-3-{3-[(2-piperidin-1-ylethyl)sulfanyl]-4-(trifluoromethyl)phenyl}-4,5,6,7-tetrahydro-1H-pyrazolo[4,3-c]pyridin-1-yl)-2-hydroxypropyl]piperidin-4-yl}pyrrolidin-2-one], for which the IC50 turned out to be 190 nM.

Consider `CC1C(=O)NCCN1CCSc1cc(-c2nn(CC(O)CN3CCC(C(=O)N4CCCC4)CC3)c3c2CN(S(C)(=O)=O)CC3)ccc1C(F)(F)F` (stereo not drawn) [Example 847, 4-[2-({5-[1-{2-Hydroxy-3-[4-(pyrrolidin-1-ylcarbonyl)piperidin-1-yl]propyl}-5-(methylsulfonyl)-4,5,6,7-tetrahydro-1H-pyrazolo[4,3-c]pyridin-3-yl]-2-(trifluoromethyl)phenyl}sulfanyl)ethyl]-3-methylpiperazin-2-one], for which the IC50 was 180 nM.

As for `CCOc1ccccc1N1CCN(CC(O)Cn2nc(-c3ccc(C(F)(F)F)c(SCCN4CCCCC4)c3)c3c2CCNC3)CC1` (stereo not drawn) [Example 546, 1-{4-[2-(Ethyloxy)phenyl]piperazin-1-yl}-3-(3-{3-[(2-piperidin-1-ylethyl)sulfanyl]-4-(trifluoromethyl)phenyl}-4,5,6,7-tetrahydro-1H-pyrazolo[4,3-c]pyridin-1-yl)propan-2-ol], the IC50 worked out at 650 nM.

For the compound `CS(=O)(=O)N1CCc2c(c(-c3ccc(C(F)(F)F)c(SCCN4CCCCC4)c3)nn2CC(O)CN2CCC(c3n[nH]c(=O)[nH]3)CC2)C1` (stereo not drawn) [Example 677, 5-(1-{2-Hydroxy-3-[5-(methylsulfonyl)-3-{3-[(2-piperidin-1-ylethyl)sulfanyl]-4-(trifluoromethyl)phenyl}-4,5,6,7-tetrahydro-1H-pyrazolo[4,3-c]pyridin-1-yl]propyl}piperidin-4-yl)-2,4-dihydro-3H-1,2,4-triazol-3-one], the IC50 stood at 90 nM.

For the compound `CN(C)c1ccc2c(n1)n(C1CCN(CCCn3nc(-c4ccc(C(F)(F)F)c(SCCN5CCCCC5)c4)c4c3CCN(S(C)(=O)=O)C4)CC1)c(=O)n2C` [Example 149, 5-(Dimethylamino)-1-methyl-3-(1-{3-[5-(methylsulfonyl)-3-{3-[(2-piperidin-1-ylethyl)sulfanyl]-4-(trifluoromethyl)phenyl}-4,5,6,7-tetrahydro-1H-pyrazolo[4,3-c]pyridin-1-yl]propyl}piperidin-4-yl)-1,3-dihydro-2H-imidazo[4,5-b]pyridin-2-one], the IC50 turned out to be 10 nM.

With `CS(=O)(=O)NCCSc1cc(-c2nn(CC(O)CN3CCC(Oc4ncccn4)CC3)c3c2CN(S(C)(=O)=O)CC3)ccc1C(F)(F)F` (stereo not drawn) [Example 768, N-[2-({5-[1-{2-Hydroxy-3-[4-(pyrimidin-2-yloxy)piperidin-1-yl]propyl}-5-(methylsulfonyl)-4,5,6,7-tetrahydro-1H-pyrazolo[4,3-c]pyridin-3-yl]-2-(trifluoromethyl)phenyl}sulfanyl)ethyl]methanesulfonamide], the IC50 came out at 95 nM.

For the compound `CC(C)(O)C1CCN(C[C@H](O)Cn2nc(-c3ccc(C(F)(F)F)c(SCCN4CCCC(F)(F)C4)c3)c3c2CCN(S(C)(=O)=O)C3)CC1` [Example 724, (2S)-1-{3-[3-{[2-(3,3-Difluoropiperidin-1-yl)ethyl]sulfanyl}-4-(trifluoromethyl)phenyl]-5-(methylsulfonyl)-4,5,6,7-tetrahydro-1H-pyrazolo[4,3-c]pyridin-1-yl}-3-[4-(1-hydroxy-1-methylethyl)piperidin-1-yl]propan-2-ol], the IC50 is 75 nM.

With `CS(=O)(=O)N1CCc2c(c(-c3ccc(C(F)(F)F)c(SCCN4CCOCC4)c3)nn2CC(O)CN2CCC(O)CC2)C1` (stereo not drawn) [Example 406, 1-{2-Hydroxy-3-[5-(methylsulfonyl)-3-{3-[(2-morpholin-4-ylethyl)sulfanyl]-4-(trifluoromethyl)phenyl}-4,5,6,7-tetrahydro-1H-pyrazolo[4,3-c]pyridin-1-yl]propyl}piperidin-4-ol], the IC50 was 550 nM.

Consider `Oc1cccc(N2CCN(CC(O)Cn3nc(-c4ccc(C(F)(F)F)c(SCCN5CCC(F)(F)C5)c4)c4c3CCNC4)CC2)c1` (stereo not drawn) [Example 509, 3-[4-(3-{3-[3-{[2-(3,3-Difluoropyrrolidin-1-yl)ethyl]sulfanyl}-4-(trifluoromethyl)phenyl]-4,5,6,7-tetrahydro-1H-pyrazolo[4,3-c]pyridin-1-yl}-2-hydroxypropyl)piperazin-1-yl]phenol], for which the IC50 came to 660 nM.

With `N#Cc1ccc(C2CCN(CC(O)Cn3nc(-c4ccc(C(F)(F)F)c(SCCN5CCCCC5)c4)c4c3CCNC4)CC2)cc1` (stereo not drawn) [Example 427, 4-{1-[2-Hydroxy-3-(3-{3-[(2-piperidin-1-ylethyl)sulfanyl]-4-(trifluoromethyl)phenyl}-4,5,6,7-tetrahydro-1H-pyrazolo[4,3-c]pyridin-1-yl)propyl]piperidin-4-yl}benzonitrile], the IC50 was 95 nM.

As for `CCN1CCc2c(c(-c3ccc(C(F)(F)F)c(SCC(=O)N4CCCC4)c3)nn2CC(O)CN2CCC(C(N)=O)CC2)C1` (stereo not drawn) [Example 331, 1-[3-(5-Ethyl-3-{3-[(2-oxo-2-pyrrolidin-1-ylethyl)sulfanyl]-4-(trifluoromethyl)phenyl}-4,5,6,7-tetrahydro-1H-pyrazolo[4,3-c]pyridin-1-yl)-2-hydroxypropyl]piperidine-4-carboxamide], the IC50 is 5930 nM.

In the case of `CS(=O)(=O)N1CCc2c(c(-c3ccc(C(F)(F)F)c(SCCN4CCC(NC(=O)CO)CC4)c3)nn2C[C@@H](O)CN2CCCCC2)C1` [Example 221, 2-Hydroxy-N-[1-(2-{[5-{1-[(2S)-2-hydroxy-3-piperidin-1-ylpropyl]-5-(methylsulfonyl)-4,5,6,7-tetrahydro-1H-pyrazolo[4,3-c]pyridin-3-yl}-2-(trifluoromethyl)phenyl]sulfanyl}ethyl)piperidin-4-yl]acetamide], the 50% inhibitory concentration (IC50) was found to be 2500 nM.

For `CS(=O)(=O)N1CCc2c(c(-c3ccc(C(F)(F)F)c(SCCN4CCCC(F)(F)C4)c3)nn2C[C@@H](O)CN2CCSCC2)C1` [Example 588, (2S)-1-{3-[3-{[2-(3,3-Difluoropiperidin-1-yl)ethyl]sulfanyl}-4-(trifluoromethyl)phenyl]-5-(methylsulfonyl)-4,5,6,7-tetrahydro-1H-pyrazolo[4,3-c]pyridin-1-yl}-3-thiomorpholin-4-ylpropan-2-ol], the IC50 amounted to 180 nM.

Consider `CS(=O)(=O)N1CCc2c(c(-c3ccc(C(F)(F)F)c(SCCN4CCC5CCCCC5C4)c3)nn2C[C@@H](O)CN2CCC(N3C[C@@H](O)CC3=O)CC2)C1` (stereo partly drawn) [Example 873, (4S)-4-Hydroxy-1-{1-[(2S)-2-hydroxy-3-{5-(methylsulfonyl)-3-[3-{[2-(octahydroisoquinolin-2(1H)-yl)ethyl]sulfanyl}-4-(trifluoromethyl)phenyl]-4,5,6,7-tetrahydro-1H-pyrazolo[4,3-c]pyridin-1-yl}propyl]piperidin-4-yl}pyrrolidin-2-one], for which the IC50 came to 60 nM.

Regarding `CS(=O)(=O)N1CCc2c(c(-c3ccc(C(F)(F)F)c(SCCN4CCCC(CO)C4)c3)nn2CC(O)CN2CCC(C(=O)N3CCCCC3)CC2)C1` (stereo not drawn) [Example 862, 1-{3-[3-({2-[3-(Hydroxymethyl)piperidin-1-yl]ethyl}sulfanyl)-4-(trifluoromethyl)phenyl]-5-(methylsulfonyl)-4,5,6,7-tetrahydro-1H-pyrazolo[4,3-c]pyridin-1-yl}-3-[4-(piperidin-1-ylcarbonyl)piperidin-1-yl]propan-2-ol], the IC50 worked out at 130 nM.

Regarding `CS(=O)(=O)N1CCc2c(c(-c3ccc(C(F)(F)F)c(SCCN4CCC(F)(F)CC4)c3)nn2C[C@@H](O)CN2CCSCC2)C1` [Example 589, (2S)-1-{3-[3-{[2-(4,4-Difluoropiperidin-1-yl)ethyl]sulfanyl}-4-(trifluoromethyl)phenyl]-5-(methylsulfonyl)-4,5,6,7-tetrahydro-1H-pyrazolo[4,3-c]pyridin-1-yl}-3-thiomorpholin-4-ylpropan-2-ol], the IC50 came to 160 nM.
